Reference: patent US20080242843A1 (AFFINICON, published 2008)

The chains behind the UniProt entries cited, without tags or fusion partners. A line that says so, or that is headed by a name, gives the form on record, which may keep a tag or linker. Residues count along the entry.
UniProt Q86VB7, 42-1156, form in doubt: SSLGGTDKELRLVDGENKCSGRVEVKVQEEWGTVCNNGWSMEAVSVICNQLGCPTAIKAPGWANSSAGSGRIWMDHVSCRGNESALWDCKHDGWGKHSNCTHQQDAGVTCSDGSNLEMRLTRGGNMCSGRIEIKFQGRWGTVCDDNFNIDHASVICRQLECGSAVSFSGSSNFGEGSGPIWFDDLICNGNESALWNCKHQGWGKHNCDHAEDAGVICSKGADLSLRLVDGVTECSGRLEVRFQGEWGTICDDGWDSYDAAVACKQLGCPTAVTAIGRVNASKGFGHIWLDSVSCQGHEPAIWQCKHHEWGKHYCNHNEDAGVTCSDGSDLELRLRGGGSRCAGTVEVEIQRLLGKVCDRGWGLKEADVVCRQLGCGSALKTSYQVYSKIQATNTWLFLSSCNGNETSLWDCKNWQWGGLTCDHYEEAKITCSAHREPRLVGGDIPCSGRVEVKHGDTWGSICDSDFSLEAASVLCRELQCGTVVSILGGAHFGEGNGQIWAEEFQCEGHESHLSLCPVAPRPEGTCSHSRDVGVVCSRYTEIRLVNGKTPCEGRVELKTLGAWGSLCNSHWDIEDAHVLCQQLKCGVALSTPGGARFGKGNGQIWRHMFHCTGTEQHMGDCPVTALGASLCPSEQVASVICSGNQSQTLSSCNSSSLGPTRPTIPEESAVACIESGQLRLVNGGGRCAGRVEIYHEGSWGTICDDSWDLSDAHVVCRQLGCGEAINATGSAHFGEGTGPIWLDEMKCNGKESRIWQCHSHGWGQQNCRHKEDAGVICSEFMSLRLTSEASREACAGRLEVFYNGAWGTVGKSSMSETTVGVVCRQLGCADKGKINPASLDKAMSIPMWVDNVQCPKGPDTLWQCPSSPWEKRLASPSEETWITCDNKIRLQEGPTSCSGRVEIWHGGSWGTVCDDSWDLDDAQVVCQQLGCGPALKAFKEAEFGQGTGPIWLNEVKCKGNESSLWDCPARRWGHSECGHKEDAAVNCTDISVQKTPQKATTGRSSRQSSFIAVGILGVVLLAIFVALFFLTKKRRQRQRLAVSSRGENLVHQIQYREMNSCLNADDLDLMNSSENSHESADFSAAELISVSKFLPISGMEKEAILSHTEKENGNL

What was measured:
Purified human CD163 [1] = molecular target: T1, Purified human CD163 (human, UniProt Q86VB7 42-1156); assay: competition with 125I-Hp(1-1)-Hb for CD163 immobilised in microtiter wells
T1 construct: mature; also called HbSR; Hp-Hb receptor

Purified human CD163 [2] = molecular target: T1, Purified human CD163; assay: competition with 125I-Hp(1-1)-Hb for CD163 immobilised in microtiter wells; apparent Kd
Purified human CD163 [3] = molecular target: T1, Purified human CD163; assay: cross-competition, unlabelled Hp(1-1)-Hb against 125I-Hp(2-2)-Hb on CD163 immobilised in microtiter wells (right curve panel)
[4] = molecular target: Hp-Hb complex (Hp of mixed or unstated phenotype) (human, UniProt P00738 19-406); assay: Hp-Hb affinity chromatography

IC50 (Purified human CD163 [1]) | Kd (Purified human CD163 [2]) | IC50 (read off the curve) (Purified human CD163 [3]) | binding result [4] | Binder
~0.3 µg/mL | ~2 nM | ~1 µg/mL |  | Hp(1-1)-Hb complex (other) chain 1: VDSGNDVTDIADDGCPKPPEIAHGYVEHSVRYQCKNYYKLRTEGDGVYTLNNEKQWINKAVGDKLPECEAVCGKPKNPANPVQRILGGHLDAKGSFPWQAKMVSHHNLTTGATLINEQWLLTTAKNLFLNHSENATAKDIAPTLTLYVGKKQLVEIEKVVLHPNYSQVDIGLIKLKQKVSVNERVMPICLPSKDYAEVGRVGYVSGWGRNANFKFTDHLKYVMLPVADQDQCIRHYEGSTVPEKKTPKSPVGVQPILNEHTFCAGMSKYQEDTCYGDAGSAFAVHDLEEDTWYATGILSFDKSCAVAEYGVYVKVTSIQDWVQKTIAEN chain 2: not shown chain 3: not shown
 |  |  | no binding | Recombinant HbSR SRCR domain 5-9 (receptor, also called HbSR SRCR 5-9) not shown
